Data from PubChem BioAssay (NCI).
Several values for one entry are separate records, joined by “and”; a condition that tells them apart may be missing. Equal entries are not always repeated. This is a selection; strong and weak results do not stand in their true shares. Some results for these compounds are left out of this collection, so the calls shown say nothing about other tests.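 Testing used 96-well plates and a 48-hour single-concentration exposure. Example: -40 means 40% of the starting cells died.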 Activity calls are given as the source filed them. Rule for the calls: active = growth percent below 10; inactive = the rest.

Key:
Assay in all cases: NCI-60 one-dose screen, 48 h (100 = growth as untreated, 0 = no growth, -100 = all killed)
Conditions in all cases: 10 µM
[1] = system: HCT-15 colon
[2] = system: HT29 colon
[3] = system: SNB-75 CNS
[4] = system: SNB-19 CNS
[5] = system: U251 CNS
[6] = system: PC-3 prostate
[7] = system: SK-MEL-5 melanoma
[8] = system: UACC-62 melanoma
[9] = system: LOX IMVI melanoma
[10] = system: SK-MEL-28 melanoma
[11] = system: SK-MEL-2 melanoma
[12] = system: EKVX NSCLC
[13] = system: SN12C renal
[14] = system: UO-31 renal
[15] = system: TK-10 renal
[16] = system: ACHN renal
[17] = system: CAKI-1 renal
[18] = system: A498 renal
[19] = system: HL-60(TB) leukemia
[20] = system: CCRF-CEM leukemia

Measured: growth

COc1ccc(N=C=S)cc1CN(CCCl)CCCl
inactive: [1] 76.4% | [2] 47.4% | [3] 63.3% | [4] 72.8% | [5] 54.3% | [6] 59.2% | [7] 86.3% | [8] 35.6% | [9] 34.2% | [10] 101% | [11] 68.9% | [12] 85.7% | [13] 52.5% | [14] 78% | [15] 78.6% | [16] 41.9% | [17] 31.4% | [18] 84.7% | [19] 20.6% | [20] 27.1%

N#CC(C#N)=Cc1ccccc1Cl
inactive: [1] 107% | [2] 118% | [3] 97.3% | [4] 103% | [5] 103% | [6] 104% | [7] 102% | [8] 95.6% | [9] 87.8% | [10] 113% | [11] 106% | [13] 99.4% | [14] 93.7% | [15] 92.2% | [16] 110% | [17] 106% | [18] 107% | [20] 102%

CCNCCCl
inactive: [1] 98.5% | [2] 104% | [3] 108% | [4] 107% | [5] 103% | [6] 109% | [7] 104% | [8] 102% | [9] 99% | [10] 106% | [11] 124% | [13] 103% | [14] 89.6% | [15] 99.6% | [16] 92.3% | [17] 107% | [18] 99.5% | [19] 126% | [20] 105%

ClCCN(CCCl)C1c2ccccc2-c2ccccc21
inactive: [1] 100% | [2] 64.1% | [3] 80.6% | [4] 96.2% | [5] 81.4% | [6] 78.4% | [7] 91% | [8] 83.3% | [9] 85% | [10] 106% | [11] 82.2% | [12] 97.9% | [13] 93.6% | [14] 86.8% | [15] 84.4% | [18] 81.1% | [19] 53.2% | [20] 59.3%

N#CC(C#N)=Cc1ccc(Br)cc1
inactive: [1] 108% and 103% | [2] 106% and 105% | [3] 113% | [4] 107% and 97.9% | [5] 99.5% and 100% | [6] 98.9% and 100% | [7] 99.2% and 97.9% | [8] 99.5% and 94.6% | [9] 98.2% and 96.1% | [10] 112% | [11] 111% and 101% | [12] 102% | [13] 103% and 90.7% | [14] 92.7% and 85.5% | [15] 115% and 109% | [16] 115% and 113% | [17] 99.7% and 107% | [18] 99% and 116% | [19] 90.9% and 112% | [20] 97.8% and 101%

ClCCN(CCCl)Cc1cc(Cl)cc(Cl)c1
inactive: [1] 81% | [2] 67.6% | [3] 66.7% | [4] 84.2% | [5] 59.2% | [6] 56.6% | [7] 94.6% | [8] 62.5% | [9] 55.5% | [10] 87.4% | [11] 103% | [13] 60.2% | [14] 71% | [15] 105% | [16] 69.2% | [17] 12.3% | [18] 78.6% | [19] 25.5% | [20] 22.2%

Cc1cc2nc(CN(CCCl)CCCl)[nH]c2cc1C
inactive: [1] 98% | [2] 79.1% | [3] 64.5% | [4] 87.3% | [5] 77.4% | [6] 90.4% | [7] 92.4% | [8] 67% | [9] 61.1% | [10] 113% | [11] 83.1% | [12] 125% | [13] 77.7% | [14] 78.4% | [15] 119% | [16] 66.7% | [17] 29.7% | [18] 76.8% | [19] 61.2% | [20] 46.5%

ClCCN(CCCl)C1CCCCC1
inactive: [1] 95.6% | [2] 104% | [3] 94.7% | [4] 102% | [5] 101% | [6] 96.9% | [7] 96.7% | [8] 91.1% | [9] 93.9% | [10] 97.2% | [11] 103% | [12] 98.3% | [13] 86.9% | [14] 90.5% | [15] 100% | [16] 90.8% | [17] 86.5% | [18] 115% | [19] 98.3% | [20] 97.2%

CCOc1ccc([N+](=O)[O-])cc1CN(CCCl)CCCl
inactive: [1] 100% | [2] 89.3% | [3] 94.7% | [4] 100% | [5] 95.6% | [6] 89.4% | [7] 100% | [8] 92.7% | [9] 83.4% | [10] 106% | [11] 101% | [12] 97.2% | [13] 93.5% | [14] 69% | [15] 86% | [16] 96.1% | [17] 87.8% | [18] 90.1% | [19] 99.9% | [20] 98.8%

CC(=O)CI
inactive: [1] 97.8% | [2] 109% | [3] 88.3% | [4] 124% | [5] 99.3% | [6] 101% | [7] 105% | [8] 101% | [9] 94% | [10] 105% | [11] 107% | [12] 95.4% | [13] 100% | [14] 90% | [15] 109% | [16] 107% | [17] 98.9% | [18] 114% | [19] 97.7% | [20] 117%

ClCCN(CCCl)Cc1ccc(Cl)c(Cl)c1
inactive: [1] 97.4% | [2] 100% | [3] 97.9% | [4] 104% | [5] 85.1% | [6] 93.8% | [7] 100% | [8] 105% | [9] 95.5% | [10] 109% | [11] 108% | [13] 100% | [14] 88.4% | [15] 98.3% | [16] 100% | [17] 94.9% | [18] 116% | [19] 85.4%

CC[N+](C)(C)Cc1cccc(Cc2ccccc2)c1OC(=O)N(C)C
inactive: [1] 101% | [2] 106% | [3] 108% | [4] 106% | [5] 100% | [6] 98.6% | [7] 102% | [8] 100% | [9] 96.9% | [10] 111% | [11] 126% | [12] 98.1% | [13] 95.4% | [14] 85.1% | [15] 109% | [16] 102% | [17] 100% | [18] 85.5% | [19] 98.6% | [20] 95.6%
